Pin1 inhibitor: blocks the human prolyl isomerase Pin1; Q13526; Pin1 FP peptide displacement, HiFluor488, 10 min; Potency, µM (doses to about 115 µM), without a hit: at the top dose activity, negative = inhibition, usual class: inhibitors; hit rate 0.009% among 390,000; AID 504891; active means well fitted inhibition curve with a large enough effect in the polarisation, with a control signal flat, not every such curve was filed as active; inconclusive means small, poorly fitted or top-dose-only effect, or effect the other way, or a change in a side signal; inactive means no such curve, though single readings can be large or run the other way; the % refers to the polarisation; further: potency means the concentration at half of the fitted maximal effect; on the % scale 0 is the no-effect control and ±100 the full control effect
HEK293 tox: cytotoxicity counter-screen for GLP-1 receptor inverse agonists. HEK293 cAMP-luciferase reporter cells, luminescence, 24 h. Potency, µM (titrated, usually from 38.3 µM), inactives show top-dose activity change, negative = inhibition, actives largely listed as inhibitors. hit rate 0.13% among 410,000;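 further: loss of luciferase light is scored as toxicity; potency means the concentration at half of the fitted maximal effect; on the % scale 0 is the no-effect control and ±100 the full control effect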
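Seeding density was 200 cells/uL; after overnight-length (12 h) culture, 23 nL compounds went on for 24 h at 37 °C. Readout used a luciferase detection reagent, luminescence taken after 12 min at room temperature.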
miR-21 FLuc: miR-21 reporter, rising signal | AID 2288 | HeLa miR-21 FLuc reporter, luciferase, 48 h | 340,000 tested, under 10 active | Potency, µM (titrated, usually from 38.3 µM), for the others: at the top dose reporter change, positive = more light; active = well fitted rising curve with a large enough effect; inconclusive = small, poorly fitted or top-dose-only effect; inactive = no such curve, though single readings can be large or run the other way;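 also: % of control where 0% means no effect; miR-21 action dims this reporter so a rising signal means less miR-21 action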
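HeLa cells stably expressing CMV-driven firefly luciferase with a downstream miR-21 binding sequence, endogenously expressing miR-21, were treated with titrations (up to about 40uM final) for 48 hours at 37 degree Celsius. Luciferase luminescence was read after lysis.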
GLP-1R agonist: GLP-1 receptor (human) agonism | P43220 | HEK293 GLP-1R CRE-luciferase, luminescence, 4-6 h; cells express a hypersensitive GLP-1R form | Potency, µM (top dose mostly 45.6 µM), for the others: at the highest dose activation, usual class: activators | hit rate 0.007% among 380,000 | AID 624172; further: potency means the concentration at half of the fitted maximal effect; % of control where 0% means no effect
PTHR1 agonist: agonists of human PTHR1 parathyroid hormone receptor; Q03431; HEK293 GP2 PTHR1 cells, GloSensor cAMP luminescence, 1 h; Potency, µM (series often up to 115 µM), without a hit: at the top dose activation, most hits filed as activators; hit rate 0.075% among 410,000; AID 743266; further: potency means the concentration at half of the fitted maximal effect; nearly all actives have a fitted effect of over 55% in size
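HEK-293-derived GP2 cells expressing PTHR1 and a GloSensor cAMP reporter, 3,000/well, plated overnight, given luciferin plus IBMX (each 0.5 mM as added) for 1 h at 37 °C, then compound for 1 h at 37 °C. Luminescence was read after 15 min at room temperature.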
GLP1R inv ag: acts as inverse agonist at human GLP-1 receptor; P43220; HEK293 GLP-1R CRE-luciferase, luminescence, 24 h; GLP-1R form is constitutively active; Potency, µM (titrated, usually from 38.3 µM), without a hit: top-dose activity change, negative = inhibition, hits mostly inhibitors; hit rate 1.6% among 410,000; further: potency means the concentration at half of the fitted maximal effect; on the % scale 0 is the no-effect control and ±100 the full control effect; nearly all actives have a fitted effect of over 55% in size
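Using stably transfected HEK293 (constitutively active GLP-1R, cAMP-luciferase reporter), compounds were incubated 24 hr and luciferase measured by luminescence.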
The depositor's hits bear a star; i = inactive; ? = inconclusive; . = no result given; [ ] = another dose, or the depositor's remark. An excerpt weighted towards active compounds, which were near 1.7% of everything screened. Unless noted, the call rests on the fitted dose curve; in most records, active means well fitted curve in the direction sought with a large enough effect; inconclusive means small, poorly fitted or top-dose-only effect, or another doubt; inactive means no such curve, though single readings can be large; an effect the other way counts as inactive or inconclusive.

Screens in order – Pin1 inhibitor | HEK293 tox | miR-21 FLuc | GLP-1R agonist | PTHR1 agonist | GLP1R inv ag
(1) O=C(NC1CCCCCC1)c1ccc2c(c1)sc1nc(-c3ccc(F)cc3)cn12
  7% | -1% | -6% | . | ? | 19%
(2) CC(=O)N/N=C\c1ccccc1OC/C=C/c1ccccc1
  -14% | -1% | -56% | -23% | -36% | 7%
(3) COCC(=O)N/N=C\c1ccc(OC/C=C/c2ccccc2)c(OC)c1
  1% | ? | -1% | 3% | -26% | ?
(4) COc1cc(C=NNc2ccccc2)ccc1OC(=O)c1ccccc1
  . | -26% | . | -6% | i | 1µM*
(5) COc1cc(/C=N\NC(=O)CC#N)ccc1OC/C=C/c1ccccc1
  10% | -4% | 8% | -4% | i | 13µM*
(6) COC(=O)N/N=C\c1ccc(OC/C=C/c2ccccc2)cc1
  -4% | 2% | -32% | 3% | -5% | 9%
(7) N#CCC(=O)N/N=C\c1cccc(OC/C=C/c2ccccc2)c1
  16% | 2% | -59% | 0% | i | 3.2µM*
(8) CC(=O)N/N=C\c1cccc(OC/C=C/c2ccccc2)c1
  7% | -5% | -53% | -4% | i | 3.5µM*
(9) COc1ccc(N(CC(C)C)S(=O)(=O)c2nnc(NC(=O)c3cccs3)s2)cc1
  -3% | 8% | 24% | . | -29% | 6%
(10) COc1ccccc1-c1nc(-c2ccccn2)no1
  0% | -1% | ? | -23% | -32% | 3.5µM*
(11) Cc1ccccc1-c1nc(-c2ccccn2)no1
  -6% | -5% | 29% | -8% | -93% | ?
(12) CC(C)(C)c1ccc(C(=O)NCC(c2cccs2)S(=O)(=O)c2ccccc2)cc1 (stereo not given)
  12% | 1% | 29% | . | i | 2.8µM*
(13) C[C@H]1C=CC(=O)C[C@H]1c1c(F)cccc1Cl
  14% | . | . | . | . | .
(14) CCN(C(=O)c1cn(-c2cccc(OC)c2)c(=O)c2ccccc12)c1ccccc1C
  4% | 1% | 12% | . | i | ?
(15) COc1cc(/C=C/C(=O)O[C@H]2CC[C@]34C[C@]35CC[C@]3(C)[C@@H]([C@H](C)CCC=C(C)C)CC[C@@]3(C)C5CCC4C2(C)C)ccc1O (stereo not given in full)
  . | . | . | -4% | . | .
(16) COCC(=O)OC1CCn2c1nc1c2C(=O)C(C)=C(NC(C)=O)C1=O (stereo not given)
  ? | 11µM* | . | -13% | -18% | 10µM*
(17) O=S(=O)(/C=C/C=C/S(=O)(=O)c1ccccc1)c1ccccc1
  3% | 0.63µM* | . | -34% | -6% | -75%
(18) Cc1ccc(S(=O)(=O)C=CS(=O)(=O)c2ccc(C)cc2)cc1
  . | ? | . | -2% | -12% | -22%
(19) COC(=O)c1cc(Cl)cc2c(C)c(C3(O)CCCCC3)[nH]c12
  ? | 8% | 7% | 16% | -13% | 7.1µM*
(20) CC(Oc1cccc(Cl)c1)C(=O)Nc1cc(Cl)ccc1N1CCOCC1 (stereo not given)
  4% | -1% | . | 12% | -46% | 13µM*

Some values from the list.
Reading for COCC(=O)N/N=C\c1ccc(OC/C=C/c2ccccc2)c(OC)c1 under PTHR1 agonist: -26%
Reading for COc1cc(/C=N\NC(=O)CC#N)ccc1OC/C=C/c1ccccc1 under GLP-1R agonist: -4%
Reading for COc1ccccc1-c1nc(-c2ccccn2)no1 under GLP1R inv ag: 3.5µM*

The listing continues.
Screens in order – Pin1 inhibitor | HEK293 tox | miR-21 FLuc | GLP-1R agonist | PTHR1 agonist | GLP1R inv ag
(21) N/C(Cc1ccc(Cl)cc1)=N\OC(=O)c1ccc2ccccc2c1
  3% | ? | -9% | ? | -12%[57.5 µM] | 7.9µM*
(22) CC(C)=C1C2CCC1C1C(=O)N(NC(=O)COc3ccc(C(C)(C)C)cc3)C(=O)C21 (stereo not given)
  9% | 5% | 11% | -5% | -3%[57.5 µM] | 7.1µM*
(23) COc1ccc(N(Cc2ccccc2)S(=O)(=O)c2cccc(C(=O)NC3=NCCS3)c2)cc1
  22% | -28% | 7% | -3% | i | 10µM*
(24) C=CCOc1cccc(/C=C2\C(=O)N(Cc3ccc(C)cc3)C(C)=C2C(=O)OC)c1
  ? | -26% | -4% | 9% | -17% | 4.5µM*
(25) Cc1cccc(-c2nc3ccccc3n3c(-c4ccccc4)c4c(=O)n(C)c(=O)n(C)c4c23)c1
  -4% | 0% | 0% | . | i | 3%
(26) O=[N+]([O-])c1ccc(O)c(/C=N/NC(=S)Nc2ccc(Cl)cc2Cl)c1
  2% | -28% | 0% | 0% | -20% | 2µM*
(27) CCn1nc(C)c(/C=N/NC(=S)Nc2ccc(Cl)cc2Cl)c1C
  -4% | ? | -29% | 23% | i | 4µM*
(28) CCCCCC[n+]1c(-c2ccc(Cl)cc2Cl)csc1Nc1ccccc1
  3% | 4% | 4% | -2% | i | 10µM*
(29) c1ccc(C[n+]2c(-c3ccccc3)csc2Nc2ccccc2)cc1
  5% | 13% | -7% | 11% | -31% | -12%
(30) O=C(Nc1ccc(Cl)cc1)N1CCC(CO)(Cc2ccccc2)CC1
  -2% | -15% | 15% | 10% | -26% | 7.9µM*
(31) CCCCOC1CC(c2ccc(OCc3ccc(OC)cc3)c(OC)c2)N(C)O1 (stereo not given)
  1% | -17% | 4% | 11% | -33% | 10µM*
(32) CC1(C)Cc2ccccc2-c2nc3ccccc3c(=O)n21
  1% | 0% | 3% | 11% | -3%[57.5 µM] | 7.9µM*
(33) N#Cc1nc(Nc2cccc(-c3ccccc3)c2)nc(NC2CCCC2)n1
  12% | . | . | . | . | .
(34) O=C(Cc1cccc2ccccc12)NCC(=O)N1CCN(CC(=O)Nc2ccc(F)cc2)CC1
  . | -3% | . | 3% | i | -20%
(35) O=C(Cc1cccc2ccccc12)NCC(=O)N1CCN(Cc2cccc(C(F)(F)F)c2)CC1
  -8% | -3% | . | 2% | -50% | 10µM*
(36) CCOC(=O)N1CCN(C(=O)c2ccc(CSc3ccc(Cl)cc3)cc2)CC1
  3% | -5% | 1% | 7% | -46% | ?
(37) CN1CCN(C(=O)c2ccc(CSc3ccc(Cl)cc3)cc2)CC1
  3% | 20% | 16% | -2% | -33% | 5.6µM*
(38) CSc1cccc(Nc2cc(C(=O)NCCCN(Cc3ccccc3)C(C)C)c3ccccc3n2)c1
  -21% | 1% | ? | . | i | ?
(39) Cc1cc(C)cc(Nc2cc(C(=O)NCCCN(Cc3ccccc3)C(C)C)c3ccccc3n2)c1
  -6% | ? | 23% | . | -31% | 5.6µM*
(40) COc1ccc(C(=O)NCc2ccc3c(c2)CCN3C(=O)c2ccc(C)cc2)cc1
  16% | -5% | 13% | . | i | 7%
(41) CC(=O)C1=C(c2ccccc2)N(C(C)=O)n2c(nnc2C2CCCCC2)S1
  13% | -1% | -5% | . | -12% | 13µM*
(42) CC(=O)C1=C(c2ccc(Cl)c(Cl)c2)N(C(C)=O)n2c(C)nnc2S1
  -5% | -21% | ? | . | i | 11µM*
(43) Cc1ccc(CCNC(=O)c2cn(C)c3ccc(S(=O)(=O)N4CCC(C)CC4)cc3c2=O)cc1
  3% | 23% | -2% | . | i | -1%

Some of these compounds in order of molecular weight, smallest number first.
Screens in order – Pin1 inhibitor | HEK293 tox | miR-21 FLuc | GLP-1R agonist | PTHR1 agonist | GLP1R inv ag
(18) Cc1ccc(S(=O)(=O)C=CS(=O)(=O)c2ccc(C)cc2)cc1
  . | ? | . | -2% | -12% | -22%
(26) O=[N+]([O-])c1ccc(O)c(/C=N/NC(=S)Nc2ccc(Cl)cc2Cl)c1
  2% | -28% | 0% | 0% | -20% | 2µM*
(25) Cc1cccc(-c2nc3ccccc3n3c(-c4ccccc4)c4c(=O)n(C)c(=O)n(C)c4c23)c1
  -4% | 0% | 0% | . | i | 3%
